Test results taken from patent publication US9745305B2, “Modulators of methyl modifying enzymes, compositions and uses thereof” (Constellation Pharmaceuticals, Inc., priority 2013, dated 2017).

Protein sequences, listed by entry. Tags and fused reporters are not part of them. Lines headed by an entry give the natural chain unless they say otherwise; changes in a name come on top.
UniProt Q15910, whole entry: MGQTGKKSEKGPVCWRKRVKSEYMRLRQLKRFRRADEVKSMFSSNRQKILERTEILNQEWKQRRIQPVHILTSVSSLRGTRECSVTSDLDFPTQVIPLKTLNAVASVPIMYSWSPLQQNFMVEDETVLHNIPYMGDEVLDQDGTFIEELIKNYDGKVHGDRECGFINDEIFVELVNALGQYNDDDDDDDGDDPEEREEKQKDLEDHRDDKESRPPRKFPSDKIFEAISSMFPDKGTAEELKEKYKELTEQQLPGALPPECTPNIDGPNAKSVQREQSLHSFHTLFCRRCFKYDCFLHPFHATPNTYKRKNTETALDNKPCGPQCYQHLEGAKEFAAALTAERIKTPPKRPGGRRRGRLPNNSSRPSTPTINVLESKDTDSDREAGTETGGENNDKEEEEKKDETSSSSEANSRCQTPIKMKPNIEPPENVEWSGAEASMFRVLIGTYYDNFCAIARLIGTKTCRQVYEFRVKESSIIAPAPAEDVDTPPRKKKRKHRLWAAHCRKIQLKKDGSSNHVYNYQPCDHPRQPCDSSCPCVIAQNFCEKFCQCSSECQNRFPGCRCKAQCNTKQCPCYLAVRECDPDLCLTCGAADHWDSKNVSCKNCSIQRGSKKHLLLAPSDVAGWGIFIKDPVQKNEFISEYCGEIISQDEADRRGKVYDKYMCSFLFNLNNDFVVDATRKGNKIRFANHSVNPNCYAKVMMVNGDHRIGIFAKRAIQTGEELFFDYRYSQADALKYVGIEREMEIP
UniProt Q15910, whole entry Y641N: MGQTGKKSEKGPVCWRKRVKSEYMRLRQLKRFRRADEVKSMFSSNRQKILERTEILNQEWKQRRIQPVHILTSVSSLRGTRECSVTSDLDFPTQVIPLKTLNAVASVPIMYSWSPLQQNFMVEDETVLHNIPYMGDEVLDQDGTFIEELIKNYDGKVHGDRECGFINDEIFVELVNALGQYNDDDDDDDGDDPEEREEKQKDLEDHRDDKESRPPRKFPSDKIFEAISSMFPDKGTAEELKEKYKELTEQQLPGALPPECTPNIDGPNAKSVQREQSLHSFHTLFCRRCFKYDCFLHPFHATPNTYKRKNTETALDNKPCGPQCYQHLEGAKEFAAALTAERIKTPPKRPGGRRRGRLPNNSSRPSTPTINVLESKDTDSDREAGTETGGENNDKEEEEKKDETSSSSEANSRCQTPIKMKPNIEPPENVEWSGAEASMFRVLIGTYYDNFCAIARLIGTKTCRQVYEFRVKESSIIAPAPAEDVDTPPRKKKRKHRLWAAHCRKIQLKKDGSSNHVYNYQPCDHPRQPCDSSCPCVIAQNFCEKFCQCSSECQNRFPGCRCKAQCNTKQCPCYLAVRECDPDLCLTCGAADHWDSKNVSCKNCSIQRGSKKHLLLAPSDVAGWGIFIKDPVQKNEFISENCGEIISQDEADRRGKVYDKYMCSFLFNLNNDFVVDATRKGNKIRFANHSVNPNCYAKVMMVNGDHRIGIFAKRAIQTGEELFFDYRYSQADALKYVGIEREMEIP
UniProt Q15022, whole entry partner: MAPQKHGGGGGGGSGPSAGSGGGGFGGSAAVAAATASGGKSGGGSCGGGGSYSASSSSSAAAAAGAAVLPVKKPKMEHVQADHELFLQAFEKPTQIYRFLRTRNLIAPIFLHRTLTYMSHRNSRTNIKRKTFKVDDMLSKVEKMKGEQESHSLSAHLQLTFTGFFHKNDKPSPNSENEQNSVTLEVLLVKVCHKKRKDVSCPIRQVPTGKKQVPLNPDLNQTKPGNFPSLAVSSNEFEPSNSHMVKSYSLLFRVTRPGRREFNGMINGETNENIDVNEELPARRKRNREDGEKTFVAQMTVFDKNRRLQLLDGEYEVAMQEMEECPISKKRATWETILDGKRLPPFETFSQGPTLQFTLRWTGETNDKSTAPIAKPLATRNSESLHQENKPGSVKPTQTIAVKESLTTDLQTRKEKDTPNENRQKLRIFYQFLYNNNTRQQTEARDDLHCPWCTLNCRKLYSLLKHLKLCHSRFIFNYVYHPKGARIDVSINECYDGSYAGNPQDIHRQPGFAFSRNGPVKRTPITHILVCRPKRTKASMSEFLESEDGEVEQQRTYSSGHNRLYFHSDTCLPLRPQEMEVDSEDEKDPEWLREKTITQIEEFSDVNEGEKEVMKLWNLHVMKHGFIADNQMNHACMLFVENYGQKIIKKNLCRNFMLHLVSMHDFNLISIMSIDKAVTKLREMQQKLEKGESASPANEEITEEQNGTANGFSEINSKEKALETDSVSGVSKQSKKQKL
UniProt O75530, whole entry partner: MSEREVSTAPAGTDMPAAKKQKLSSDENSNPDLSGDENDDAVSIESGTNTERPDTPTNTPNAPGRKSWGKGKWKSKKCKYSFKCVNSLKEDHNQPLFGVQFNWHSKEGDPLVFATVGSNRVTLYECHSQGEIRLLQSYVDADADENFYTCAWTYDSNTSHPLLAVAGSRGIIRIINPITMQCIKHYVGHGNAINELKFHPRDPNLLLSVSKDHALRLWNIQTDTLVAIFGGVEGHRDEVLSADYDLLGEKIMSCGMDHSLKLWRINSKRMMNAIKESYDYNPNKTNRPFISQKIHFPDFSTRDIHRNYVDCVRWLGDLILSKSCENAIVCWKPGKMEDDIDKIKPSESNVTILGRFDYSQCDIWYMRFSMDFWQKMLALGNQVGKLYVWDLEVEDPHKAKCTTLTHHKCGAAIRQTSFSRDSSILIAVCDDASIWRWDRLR

How the values were obtained:
Y641N EZH2 = Y641N EZH2 (Homo sapiens, UniProt Q15910, Y641N); test: Assay for Y641N EZH2 (as the EZH2 assay, H3K27Me2 oligonucleosomes as substrate); settings: Y641N EZH2 mutant, reconstituted H3K27Me2 oligonucleosomes as substrate; for IC50: read-out: Y641N EZH2 IC50
Protocol: (§1) EZH2 Assay: Assays were carried out by mixing rPRC2 together with biotinylated oligonucleosome substrates in the presence of the radio-labeled enzyme co-factor, S-adenosyl-L-methionine (^3H SAM) (Perkin Elmer) and monitoring the enzymatically mediated transfer of tritiated methyl groups from ^3H SAM to histone lysine residues. The amount of resulting tritiated methyl histone product was measured by first capturing the biotinylated oligonucleosomes in streptavidin (SAV) coated FlashPlates (Perkin Elmer), followed by a wash step to remove unreacted ^3H SAM, and then counting on a TopCount NXT 384 well plate scintillation counter (Perkin Elmer). The final assay conditions for EZH2 were as follows: 50 mM Tris Buffer pH 8.5, 1 mM DTT, 69 μM Brij-35 detergent, 5.0 mM MgCl2, 0.1 mg/mL BSA, 0.2 μM ^3H SAM, 0.2 μM biotinylated oligonucleosomes, 3.6 μM H3K27me3 peptide and 2 nM EZH2.
(§2) Compound IC50 measurements were obtained as follows: Compounds were first dissolved in 100% DMSO as 10 mM stock solutions. Ten point dose response curves were generated by dispensing varying amounts of the 10 mM compound solution in 10 wells of the 384 well plate (Echo; Labcyte), pure DMSO was then used to backfill the wells to insure all wells have the same amount of DMSO. A 12.5 μL volume of the HMT enzyme, H3K27me3 peptide and oligonucleosome substrate in assay buffer was added to each well of the assay plate using a Multidrop Combi (ThermoFisher). Compounds were pre-incubated with the enzyme for 20 min, followed by initiation of the methyltransferase reaction by addition of 12.5 μL of ^3H SAM in assay buffer (final volume=25 μL). The final concentrations of compounds ranged from a top default concentration of 80 μM down to 0.16 μM in ten 2-fold dilution steps. Reactions were carried out for 60 minutes and quenched with 20 μL per well of 1.96 mM SAH, 50 mM Tris pH 8.5, 200 mM EDTA. […]

EZH2 = EZH2 (Homo sapiens, UniProt Q15910); test: EZH2 Assay (3H SAM methyl transfer, rPRC2, FlashPlate); settings: rPRC2, biotinylated oligonucleosomes, 0.2 μM 3H SAM, 2 nM EZH2; for IC50: read-out: EZH2 IC50
Protocol: as §1, §2

[1] = system: H3K27me3 mark in Hela cells expressing wild type EZH2; test: H3K27me3 MSD Hela Assay; settings: read-out: H3K27me3_MSD_HeLa (EC50), 96 hours
Protocol: H3K27me3 MSD Hela Assay. Trypsinized HeLa cells were counted and diluted in 10% DMEM (Life Technologies, Cat. #10569) to 5000 cells/75 μL. Seventy-five μL of cells were place in each well of a 96-well flat-bottomed plate and incubated at 37° C. for 4 hours. Twenty-five μL of test compound (at various concentrations) was added to the cells and incubation continued at 37° C. for 96 hours. Media was then removed and the cells rinsed once with ice cold PBS. Forty μL of ice-cold MSD Buffer AT (10 mM HEPES, pH 7.9, 5 mM MgCl2, 0.25M sucrose, Benzonase (1:10000), 1% Triton X-100 supplemented with fresh 1× Protease Inhibitor cocktail and 1 mM 4-(2-Aminoethyl)benzenesulfonyl fluoride hydrochloride (AEBSF)) was added to each well and the plates placed on ice for 30 minutes. Ten μL of 5M NaCl was then added to each well and incubation on ice continued for another 15 minutes. […]
The antibody mix was then removed and the wells washed with Blocker A. One hundred-fifty μL of freshly prepared 1×MSD Read Buffer (Meso-Scale Discovery; Cat #R927C-2) was then added to each well and the plates read on a MSD Sector 2400 Plate Reader.
Data was analyzed using Assay Assistant (Constellation Pharmaceuticals In-house product) and Activity Base (IDBS Ltd, Surrey, UK) template. […] Readout of DMSO wells were used to normalize the data. […]

Y641N EZH2 IC50 (Y641N EZH2)	EZH2 IC50 (EZH2)	SMILES	IC50 (Y641N EZH2) [nM]	IC50 (EZH2) [nM]	EC50 [1] [nM]
*(0.5 μM)	*(0.5 μM)	COc1cc(C)[nH]c(=O)c1CNC(=O)c1c(C)c(-c2nn(C)cc2C)n2ncccc12			
		CCS(=O)(=O)N1CCC(C(C)c2c(C)c(C(=O)NCc3c(OC)cc(C)[nH]c3=O)c3cccnn23)CC1 (racemic)	< 100	< 100	
		COc1cc(C)[nH]c(=O)c1CNC(=O)c1c(C)c(C(C)C2CCOCC2)n2ccncc12 (racemic)	< 100	< 100	< 400
